The assay concerns the target Mu-type opioid receptor (Homo sapiens, UniProt P35372). Put plainly: Displacement of [3H]naloxone from mu opioid receptor expressed in BHK cells.

Chains of the proteins cited; added tags and fusions are not shown.
UniProt P35372, whole entry, looked up: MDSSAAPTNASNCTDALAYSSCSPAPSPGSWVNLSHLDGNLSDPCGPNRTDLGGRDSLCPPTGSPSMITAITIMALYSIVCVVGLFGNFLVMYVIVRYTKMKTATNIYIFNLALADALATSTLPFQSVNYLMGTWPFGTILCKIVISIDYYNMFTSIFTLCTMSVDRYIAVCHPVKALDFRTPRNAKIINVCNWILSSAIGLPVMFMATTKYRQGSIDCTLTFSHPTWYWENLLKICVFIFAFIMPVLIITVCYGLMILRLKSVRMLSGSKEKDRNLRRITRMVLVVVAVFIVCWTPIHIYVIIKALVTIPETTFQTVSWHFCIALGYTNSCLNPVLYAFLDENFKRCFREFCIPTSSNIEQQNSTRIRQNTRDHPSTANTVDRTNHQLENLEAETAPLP

`O=C1NC[C@H](c2ccc(F)cc2)C12CCN([C@@H]1CCCC[C@@H]1c1ccc(F)cc1)CC2`: the IC50 was determined as 6.7 µM.

The compound `O=C1NC[C@@H](c2ccc(F)cc2)C12CCN([C@H]1CCCC[C@H]1c1ccc(F)cc1)CC2` had an IC50 of 1.55 µM.

`O=C1NCC(c2ccccc2)C12CCN(C1CCCCC1c1ccccc1)CC2` (stereo not drawn): the half-maximal inhibitory concentration (IC50) is 3.92 µM.

Compound `O=C1NC[C@@H](c2ccccc2)C12CCN([C@H]1CCCC[C@H]1c1ccccc1)CC2` had a 50% inhibitory concentration (IC50) greater than 10 µM.

`O=C1NC[C@H](c2ccccc2)C12CCN([C@@H]1CCCC[C@@H]1c1ccccc1)CC2` showed a half-inhibitory concentration (IC50) of 5.48 µM.

Compound `O=C1NC[C@H](c2ccc(F)cc2)C12CCN([C@H]1CCCC[C@H]1c1ccc(F)cc1)CC2` yielded an IC50 greater than 10 µM.

Compound `O=C1NC[C@H](c2ccccc2)C12CCN([C@H]1CCCC[C@H]1c1ccccc1)CC2` displayed an IC50 of 3.49 µM.

`O=C1NC[C@@H](c2ccc(F)cc2)C12CCN([C@@H]1CCCC[C@@H]1c1ccc(F)cc1)CC2` had a half-inhibitory concentration (IC50) of 1.09 µM.

For the origin of these results see ChEMBL document CHEMBL1138975, “Design and synthesis of 4-substituted-8-(2-phenyl-cyclohexyl)-2,8-diaza-spiro[4.5]decan-1-one as a novel class of GlyT1 inhibitors: achieving selectivity against the mu opioid and nociceptin/orphanin FQ peptide (NOP) receptors” (Bioorg Med Chem Lett, 2006).
